Where a chain is given by its changes, count along the chain named.
Legend:
Format in all cases: binding
[1] = biological target: T1, human UHRF1 TTD domain (Homo sapiens, UniProt Q96T88); test: ITC, PBR peptide titrated over TTD domain; conditions: versus wild-type PBR
T1 sequence (Q96T88 126-284): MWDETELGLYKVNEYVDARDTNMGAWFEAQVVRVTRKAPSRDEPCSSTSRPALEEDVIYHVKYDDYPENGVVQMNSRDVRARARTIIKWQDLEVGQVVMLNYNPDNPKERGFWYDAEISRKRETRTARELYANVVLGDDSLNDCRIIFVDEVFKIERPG

[2] = biological target: T2, human UHRF1 TTD D142A (Homo sapiens, UniProt Q96T88, D142A); test: ITC, PBR peptide over TTD D142A mutant; conditions: versus wild-type TTD
T2 sequence (Q96T88 126-284 D142A): T1 sequence (Q96T88 126-284) with D17A

[3] = biological target: T3, human UHRF1 TTD D145A (Homo sapiens, UniProt Q96T88, D145A); test: ITC, PBR peptide over TTD D145A mutant; conditions: versus wild-type TTD
T3 sequence (Q96T88 126-284 D145A limits assumed): T1 sequence (Q96T88 126-284) with D20A

[4] = biological target: T4, human UHRF1 TTD F152A (Homo sapiens, UniProt Q96T88, F152A); test: ITC, PBR peptide over TTD F152A mutant; conditions: versus wild-type TTD
T4 sequence (Q96T88 126-284 F152A limits assumed): T1 sequence (Q96T88 126-284) with F27A

[5] = biological target: T5, human UHRF1 TTD E153A (Homo sapiens, UniProt Q96T88, E153A); test: ITC, PBR peptide over TTD E153A mutant; conditions: versus wild-type TTD
T5 sequence (Q96T88 126-284 E153A): T1 sequence (Q96T88 126-284) with E28A

[6] = biological target: T6, human UHRF1 TTD D142A/E153A (Homo sapiens, UniProt Q96T88, D142A/E153A); test: ITC, PBR peptide over TTD D142A/E153A double mutant
T6 sequence (Q96T88 126-284 D142A/E153A): T1 sequence (Q96T88 126-284) with D17A, E28A

[7] = system: human UHRF1 TTD N147A; test: ITC, PBR peptide over TTD N147A mutant; conditions: Fig. S2C, D
[8] = system: human UHRF1 TTD N194A; test: ITC, PBR peptide over TTD N194A mutant; conditions: Fig. S2C, D
[9] = biological target: T7, human UHRF1 TTD-PHD dual domains (Homo sapiens, UniProt Q96T88); test: ITC, PBR peptide over TTD-PHD dual domains; conditions: 25 mM Tris-HCl, pH 7.5, 100 mM NaCl, 25°C, Fig. 3E: average and standard deviation derived from two independent measurements
T7 sequence (Q96T88 126-366): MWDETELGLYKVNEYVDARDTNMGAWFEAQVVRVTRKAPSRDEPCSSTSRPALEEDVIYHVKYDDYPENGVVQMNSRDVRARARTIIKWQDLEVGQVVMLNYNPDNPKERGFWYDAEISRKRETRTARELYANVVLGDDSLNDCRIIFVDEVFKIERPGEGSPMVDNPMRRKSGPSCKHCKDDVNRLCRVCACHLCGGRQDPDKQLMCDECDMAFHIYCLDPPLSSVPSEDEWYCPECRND

Row | reduction of TTD – PBR binding by PBR mutation [1] | reduction of binding affinity by TTD D142A [2] | reduction of binding affinity by TTD D145A [3] | reduction of binding affinity by TTD F152A [4] | reduction of binding affinity by TTD E153A [5] | effect of TTD D142A/E153A on PBR binding [6] | weaker binding of PBR with TTD-PHD than with TTD [9] | Structure (SMILES) | effect of TTD N147A on PBR binding [7] | effect of TTD N194A on PBR binding [8]
1 | ~ 20 fold | – | – | – | – | – | – | C[C@H](NC(=O)[C@H](Cc1ccccc1)NC(=O)CNC(=O)CNC(=O)[C@@H](N)CCC(=O)O)C(=O)N[C@@H](CO)C(=O)N1CCC[C@H]1C(=O)N[C@@H](CCCNC(=N)N)C(=O)N[C@H](C(=O)NCC(=O)N[C@@H](CCCCN)C(=O)NCC(=O)N[C@@H](CCCCN)C(=O)N[C@@H](Cc1c[nH]c2ccccc12)C(=O)N[C@@H](CCCCN)C(=O)N[C@@H](C)C(=O)N[C@@H](CCCCN)C(=O)N[C@@H](CO)C(=O)N[C@@H](C)C(=O)NCC(=O)NCC(=O)NCC(=O)N1CCC[C@H]1C(=O)N[C@@H](CO)C(=O)N[C@@H](CCCNC(=N)N)C(=O)N[C@@H](C)C(=O)NCC(=O)N[C@@H](CO)C(=O)N1CCC[C@H]1C(=O)N[C@@H](CCCNC(=N)N)C(=O)N[C@@H](CCCNC(=N)N)C(=O)N[C@H](C(=O)O)[C@@H](C)O)[C@@H](C)O [R649A] | – | –
2 | – | > 3 fold | > 3 fold | > 3 fold | > 3 fold | nearly abolished the binding | ~ 3 fold | C[C@H](NC(=O)[C@H](Cc1ccccc1)NC(=O)CNC(=O)CNC(=O)[C@@H](N)CCC(=O)O)C(=O)N[C@@H](CO)C(=O)N1CCC[C@H]1C(=O)N[C@@H](CCCNC(=N)N)C(=O)N[C@H](C(=O)NCC(=O)N[C@@H](CCCCN)C(=O)NCC(=O)N[C@@H](CCCCN)C(=O)N[C@@H](Cc1c[nH]c2ccccc12)C(=O)N[C@@H](CCCCN)C(=O)N[C@@H](CCCNC(=N)N)C(=O)N[C@@H](CCCCN)C(=O)N[C@@H](CO)C(=O)N[C@@H](C)C(=O)NCC(=O)NCC(=O)NCC(=O)N1CCC[C@H]1C(=O)N[C@@H](CO)C(=O)N[C@@H](CCCNC(=N)N)C(=O)N[C@@H](C)C(=O)NCC(=O)N[C@@H](CO)C(=O)N1CCC[C@H]1C(=O)N[C@@H](CCCNC(=N)N)C(=O)N[C@@H](CCCNC(=N)N)C(=O)N[C@H](C(=O)O)[C@@H](C)O)[C@@H](C)O [PBR] | did not lead to appreciable change in the TTD – PBR binding | did not lead to appreciable change in the TTD – PBR binding
3 | ~ 2 fold | – | – | – | – | – | – | C[C@H](NC(=O)[C@H](Cc1ccccc1)NC(=O)CNC(=O)CNC(=O)[C@@H](N)CCC(=O)O)C(=O)N[C@@H](CO)C(=O)N1CCC[C@H]1C(=O)N[C@@H](CCCNC(=N)N)C(=O)N[C@H](C(=O)NCC(=O)N[C@@H](CCCCN)C(=O)NCC(=O)N[C@@H](CCCCN)C(=O)N[C@@H](Cc1c[nH]c2ccccc12)C(=O)N[C@@H](CCCCN)C(=O)N[C@@H](CCCNC(=N)N)C(=O)N[C@@H](CCCCN)C(=O)N[C@@H](CO)C(=O)N[C@@H](C)C(=O)NCC(=O)NCC(=O)NCC(=O)N1CCC[C@H]1C(=O)N[C@@H](C)C(=O)N[C@@H](CCCNC(=N)N)C(=O)N[C@@H](C)C(=O)NCC(=O)N[C@@H](CO)C(=O)N1CCC[C@H]1C(=O)N[C@@H](CCCNC(=N)N)C(=O)N[C@@H](CCCNC(=N)N)C(=O)N[C@H](C(=O)O)[C@@H](C)O)[C@@H](C)O [S657A] | – | –

Source: article PMC5803408 (Structure (London, England : 1993), 2018)
